Patent publication US20020082273A1, “Agents for use in the treatment of alzheimer's disease” (priority 1998, published 2002)

Tested on: SDS-resistant Aβ polymers extracted from AD brains
Settings: 1 mM or 5 mM chelator

## bathocuproinedisulfonic acid [BC]
  amount of monomer Aβ: significantly increased the amount of monomer Aβ
